Measurements as given in patent publication US20100029657A1, “Bridged, Bicyclic Heterocyclic or Spiro Bicyclic Heterocyclic Derivatives of Pyrazolo[1, 5-A]Pyrimidines, Methods for Preparation and Uses Thereof” (Wyeth, priority 2008, published 2010).

Amino acid sequences for entries named in this document (tags omitted).
UniProt P15056, whole entry: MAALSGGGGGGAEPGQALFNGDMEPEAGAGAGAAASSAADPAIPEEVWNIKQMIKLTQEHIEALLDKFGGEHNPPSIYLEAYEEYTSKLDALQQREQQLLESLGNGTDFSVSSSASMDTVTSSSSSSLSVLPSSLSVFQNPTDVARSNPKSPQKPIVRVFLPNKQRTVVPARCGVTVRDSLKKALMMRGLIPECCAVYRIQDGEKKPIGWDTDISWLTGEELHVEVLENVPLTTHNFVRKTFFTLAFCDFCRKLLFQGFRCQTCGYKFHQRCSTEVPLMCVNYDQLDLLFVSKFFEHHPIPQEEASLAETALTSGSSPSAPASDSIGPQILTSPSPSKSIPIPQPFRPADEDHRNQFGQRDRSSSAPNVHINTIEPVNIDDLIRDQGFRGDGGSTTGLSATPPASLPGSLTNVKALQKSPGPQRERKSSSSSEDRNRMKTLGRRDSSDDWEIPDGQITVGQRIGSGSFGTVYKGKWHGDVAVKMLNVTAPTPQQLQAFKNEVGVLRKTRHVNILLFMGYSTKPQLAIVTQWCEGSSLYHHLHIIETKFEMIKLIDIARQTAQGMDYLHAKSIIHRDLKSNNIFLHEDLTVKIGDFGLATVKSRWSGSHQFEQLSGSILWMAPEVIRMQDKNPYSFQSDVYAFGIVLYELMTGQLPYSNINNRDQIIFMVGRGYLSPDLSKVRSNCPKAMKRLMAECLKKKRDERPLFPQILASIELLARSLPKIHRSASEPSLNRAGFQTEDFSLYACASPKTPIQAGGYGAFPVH

Target: Flag/GST-tagged recombinant human B-Raf (Homo sapiens, UniProt P15056)
Test: B-Raf kinase assay (phosphorylation of GST-MEK1, phospho-MEK1 antibody/Europium detection)
Format: biochemical
Conditions: read-out: Mean IC50; B-Raf IC50 Data for compounds of Formula A

`COc1cccc(-c2c(-c3ccncc3)nn3c(-c4ccnc(N[C@H]5CN6CCC5CC6)c4)ccnc23)c1` was tested, and the IC50 was over 1 µM.
